Assay results published in patent US8895598B2, “Methods of treating a flaviviridae family viral infection, compositions for treating a flaviviridae family viral infection, and screening assays for identifying compositions for treating a flaviviridae family viral infection” (priority 2007, dated 2014).

Assay: Alamar Blue-based viability assay
Conditions: human
Experimental: The in vivo antiviral effect on HCV RNA replication of the inhibitory compounds identified in the above screen was measured. Following electroporation with a full-length HCV RNA genome harboring a Luciferase reporter gene^28, Huh7.5 cells were grown in the presence of increasing concentrations of these compounds. Luciferase assays were performed at 72 hr. In parallel, the viability of cells in the presence of the compounds was assessed by an Alamar Blue-based assay.
Following 72 hrs of treatment, cells were incubated for 3 hrs at 37° C. in the presence of 10% Alamar Blue reagent (TREK Diagnostic Systems). Plates were then scanned and fluorescence was detected by using FLEXstation II 384 (Molecular Devices, Inc.).

[1] = Viab (cell viability, percent of normal activity remaining)
[2] = Viab score (binned residual cell viability)

Row | SMILES | viability at 72 h, 5 µM [1] [%] | viability at 72 h, 10 µM [1] [%] | viability at 72 h, 5 µM [2] [%] | viability at 72 h, 10 µM [2] [%]
1 | Cc1nc2cc(Cl)ccc2n1Cc1ccccc1 | 99 | 94 |  | 
2 | Cc1cc2ncn(Cc3ccc(Cl)cc3Cl)c2cc1C | 83 | 70 | 60 to 90 | 60 to 90
3 | Brc1ccc(Cn2cnc3ccccc32)cc1 | 81 | 68 | 60 to 90 | 60 to 90
4 | Cc1nc2ccccc2n1Cc1ccc(Br)cc1 | 54 | 51 | 30 to 60 | 30 to 60
5 | OCc1nc2ccccc2n1Cc1ccc(Br)cc1 | 97 | 90 |  | 
6 | COC(=O)c1ccc(Cn2cnc3ccccc32)cc1 | 101 | 96 |  | 
7 | CC(C)(C)c1ccc(Cn2cnc3ccccc32)cc1 | 87 | 76 | 60 to 90 | 60 to 90
8 | Cc1ccc(Cn2cnc3ccccc32)cc1 | 99 | 84 |  | 60 to 90
9 | COc1ccc(Cn2cnc3ccccc32)cc1 | 98 | 100 |  | 
